Laboratory results as given in ChEMBL document CHEMBL1130618, “A novel and practical route to A-ring enyne synthon for 1 alpha,25-dihydroxyvitamin D3 analogs: synthesis of A-ring diastereomers of 1 alpha,25-dihydroxyvitamin D2 and 3-methyl-1,25-dihydroxyvitamin D3” (1998).

How the values were obtained:
[1] = target: T1, Vitamin D-binding protein (Homo sapiens) (UniProt P02774); assay: Binding affinity for Vitamin D binding protein relative to 1-alpha, 25-dihydroxyvitamin D3; settings: Bos taurus
T1 sequence (whole entry): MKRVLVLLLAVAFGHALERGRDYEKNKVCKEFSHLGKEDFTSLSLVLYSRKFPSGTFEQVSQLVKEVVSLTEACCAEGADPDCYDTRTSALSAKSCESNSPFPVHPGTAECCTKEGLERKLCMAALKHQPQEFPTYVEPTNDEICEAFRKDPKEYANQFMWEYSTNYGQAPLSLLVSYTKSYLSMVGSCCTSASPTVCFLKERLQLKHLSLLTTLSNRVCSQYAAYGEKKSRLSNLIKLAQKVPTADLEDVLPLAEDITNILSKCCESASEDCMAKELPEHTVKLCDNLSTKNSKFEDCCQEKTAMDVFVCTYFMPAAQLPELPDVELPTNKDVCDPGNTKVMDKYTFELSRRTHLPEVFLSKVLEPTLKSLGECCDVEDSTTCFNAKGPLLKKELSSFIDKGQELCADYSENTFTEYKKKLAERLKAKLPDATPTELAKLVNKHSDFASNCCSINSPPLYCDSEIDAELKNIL

[2] = target: T2, Vitamin D3 receptor (Bos taurus) (UniProt Q28037); assay: Binding affinity for bovine thymus Vitamin D3 receptor (VDR) relative to 1-alpha, 25-dihydroxyvitamin D3
T2 sequence (whole entry): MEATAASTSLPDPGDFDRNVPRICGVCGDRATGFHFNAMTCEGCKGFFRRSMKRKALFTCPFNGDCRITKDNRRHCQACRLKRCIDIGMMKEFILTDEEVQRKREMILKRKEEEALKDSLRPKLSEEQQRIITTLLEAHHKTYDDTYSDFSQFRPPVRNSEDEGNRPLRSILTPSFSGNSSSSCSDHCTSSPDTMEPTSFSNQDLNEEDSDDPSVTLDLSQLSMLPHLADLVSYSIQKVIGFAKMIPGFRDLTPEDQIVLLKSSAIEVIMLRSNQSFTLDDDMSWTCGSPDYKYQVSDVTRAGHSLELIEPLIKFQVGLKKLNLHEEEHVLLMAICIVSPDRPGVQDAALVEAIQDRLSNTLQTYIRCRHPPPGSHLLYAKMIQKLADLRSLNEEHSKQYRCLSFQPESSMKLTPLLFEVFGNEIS

SMILES	Relative potency [1]	Relative potency [2]
C=C1/C(=C\C=C2/CCC[C@]3(C)[C@@H]([C@H](C)CCCC(C)(C)O)CC[C@@H]23)C[C@H](O)[C@H](C)[C@H]1O	1200	< 0.1
C=C1/C(=C\C=C2/CCC[C@]3(C)[C@@H]([C@H](C)CCCC(C)(C)O)CC[C@@H]23)C[C@@H](O)[C@H](C)[C@@H]1O	68	400
C=C1/C(=C\C=C2/CCC[C@]3(C)[C@@H]([C@H](C)CCCC(C)(C)O)CC[C@@H]23)C[C@@H](O)[C@H](C)[C@H]1O	200	< 0.1
C=C1/C(=C\C=C2/CCC[C@]3(C)[C@@H]([C@H](C)CCCC(C)(C)O)CC[C@@H]23)C[C@H](O)[C@@H](C)[C@H]1O	1300	0.8
C=C1/C(=C\C=C2/CCC[C@]3(C)[C@@H]([C@H](C)CCCC(C)(C)O)CC[C@@H]23)C[C@H](O)[C@H](C)[C@@H]1O	45	4

Other lines, results leading:

Relative potency [1]	Relative potency [2]	SMILES
21	0.3	C=C1/C(=C\C=C2/CCC[C@]3(C)[C@@H]([C@H](C)CCCC(C)(C)O)CC[C@@H]23)C[C@H](O)[C@@H](C)[C@@H]1O
79	13	C=C1/C(=C\C=C2/CCC[C@]3(C)[C@@H]([C@H](C)CCCC(C)(C)O)CC[C@@H]23)C[C@@H](O)[C@@H](C)[C@@H]1O
1000	< 0.1	C=C1/C(=C\C=C2/CCC[C@]3(C)[C@@H]([C@H](C)CCCC(C)(C)O)CC[C@@H]23)C[C@@H](O)[C@@H](C)[C@H]1O
